# Results as given in patent publication US7732437B2, “Use of anti-histaminics for acute reduction of elevated intracranial pressure” (Janssen Pharmaceutica, NV., priority 2001, dated 2010).
# Chains of the proteins cited; added tags and fusions are not shown.
# UniProt P47747, whole entry: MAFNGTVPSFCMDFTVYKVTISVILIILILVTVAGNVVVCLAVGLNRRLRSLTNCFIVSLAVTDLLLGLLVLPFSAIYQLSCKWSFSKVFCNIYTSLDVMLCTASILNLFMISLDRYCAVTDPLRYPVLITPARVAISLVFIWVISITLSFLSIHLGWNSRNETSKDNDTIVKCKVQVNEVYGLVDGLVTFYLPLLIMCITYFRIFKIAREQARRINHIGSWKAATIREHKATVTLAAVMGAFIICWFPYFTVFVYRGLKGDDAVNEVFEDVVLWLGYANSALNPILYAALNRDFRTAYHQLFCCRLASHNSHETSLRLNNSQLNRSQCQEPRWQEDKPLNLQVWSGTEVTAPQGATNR
# Target: T1, histamine H2-receptor (Cavia porcellus, UniProt P47747)
# T1 construct: using guinea pig striatum cells and [^125I]APT as the radioligand; from tissue; host or cells: guinea pig striatum
# Experiment: Radioligand binding, histamine H2-receptor, guinea pig striatum cells, [125I]APT
# Details: [125I]APT 0.1 nM, 150 min at 22° C., read-out: H2-antagonist activity (pIC50) (converted)
compound,measurement,value
"CN/C(=N/CCSCc1nc[nH]c1C)NC#N [Cimetidine, cimetidine]",IC50,1260 nM
